Columns and labels:
BRAF-V600E = molecular target: T1, BRAF-V600E (Homo sapiens, UniProt P15056, V600E); assay: BRAF kinase assay on BRAF immunoprecipitated from pretreated G-361 cells; type: biochemical; settings: G-361 cells treated 48 hours; 200 μM or 400 μM I3C, 10 μM Vemurafenib
T1 construct: BRAF-V600E was immunoprecipitated from untreated G-361 cells and incubated in vitro; endogenous in cells; host or cells: G-361 human melanoma cells (ATCC)
Description: (§1) BRAF was pulled down from the cell lysates using anti-BRAF antibodies bound to protein G-coupled Sepharose beads, while IgG was used as a negative control. Post-immunoprecipitation supernatants were probed with anti BRAF antibody by western blots to determine pull-down efficiency. […] The reactions were terminated by adding 4× sodium dodecyl sulfate (SDS) sample buffer and boiling the mixture at 100° C. for 5 min. The samples were then electrophoresed, immunoblotted and probed for relative protein levels of phosphorylated MEK and total MEK to assess the kinase activity of the immunoprecipitated BRAF.

Sequences of proteins named here, by UniProt entry; tags and fusion partners are left off.
UniProt P15056, whole entry V600E: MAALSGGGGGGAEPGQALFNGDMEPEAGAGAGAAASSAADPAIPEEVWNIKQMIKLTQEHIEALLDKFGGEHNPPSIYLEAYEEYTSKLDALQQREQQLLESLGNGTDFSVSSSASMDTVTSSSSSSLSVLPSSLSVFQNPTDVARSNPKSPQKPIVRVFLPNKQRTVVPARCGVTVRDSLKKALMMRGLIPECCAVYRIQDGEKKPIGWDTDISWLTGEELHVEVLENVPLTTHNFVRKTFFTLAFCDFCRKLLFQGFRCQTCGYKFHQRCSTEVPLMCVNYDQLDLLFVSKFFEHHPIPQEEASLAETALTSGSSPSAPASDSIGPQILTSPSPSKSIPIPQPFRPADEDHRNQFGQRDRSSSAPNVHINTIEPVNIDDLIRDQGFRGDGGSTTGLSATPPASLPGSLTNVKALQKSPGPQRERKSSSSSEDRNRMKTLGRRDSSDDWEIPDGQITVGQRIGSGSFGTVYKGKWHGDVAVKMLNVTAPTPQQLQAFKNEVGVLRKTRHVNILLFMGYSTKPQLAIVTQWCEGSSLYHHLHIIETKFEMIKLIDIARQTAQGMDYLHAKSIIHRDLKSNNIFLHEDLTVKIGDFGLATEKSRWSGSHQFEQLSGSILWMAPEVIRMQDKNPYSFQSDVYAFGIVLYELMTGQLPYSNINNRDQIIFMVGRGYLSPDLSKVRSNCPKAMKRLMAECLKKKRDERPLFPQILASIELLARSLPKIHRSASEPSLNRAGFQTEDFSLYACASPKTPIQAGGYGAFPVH
UniProt P15056, whole entry: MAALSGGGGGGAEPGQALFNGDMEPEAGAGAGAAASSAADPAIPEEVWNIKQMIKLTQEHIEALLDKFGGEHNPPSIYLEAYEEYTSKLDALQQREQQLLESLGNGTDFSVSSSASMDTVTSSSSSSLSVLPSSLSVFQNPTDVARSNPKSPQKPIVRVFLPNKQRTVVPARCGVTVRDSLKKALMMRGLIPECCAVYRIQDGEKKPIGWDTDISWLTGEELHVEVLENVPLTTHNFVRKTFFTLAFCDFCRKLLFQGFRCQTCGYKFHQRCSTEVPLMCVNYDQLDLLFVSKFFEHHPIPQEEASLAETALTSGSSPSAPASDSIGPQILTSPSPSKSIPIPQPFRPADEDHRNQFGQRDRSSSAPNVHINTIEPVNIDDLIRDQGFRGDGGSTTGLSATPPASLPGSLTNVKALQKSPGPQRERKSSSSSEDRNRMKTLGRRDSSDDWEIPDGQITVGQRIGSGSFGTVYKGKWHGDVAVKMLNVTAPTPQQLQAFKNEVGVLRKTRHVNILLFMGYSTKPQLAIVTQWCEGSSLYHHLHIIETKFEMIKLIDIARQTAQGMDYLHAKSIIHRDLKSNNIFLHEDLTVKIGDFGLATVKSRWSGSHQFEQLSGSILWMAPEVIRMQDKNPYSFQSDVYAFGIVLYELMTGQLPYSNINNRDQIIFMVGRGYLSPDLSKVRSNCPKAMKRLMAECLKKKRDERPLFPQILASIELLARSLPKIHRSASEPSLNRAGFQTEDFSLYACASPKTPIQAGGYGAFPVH

wild type BRAF = molecular target: T2, wild type BRAF (Homo sapiens, UniProt P15056); assay: In vitro BRAF kinase assay, in-vitro treated wild type BRAF from SK-MEL-2 cells; type: biochemical; settings: pre-incubated 2 hours; 200 μM or 400 μM I3C, 10 μM Vemurafenib
T2 construct: Wild type BRAF was immunoprecipitated from SK-MEL-2 melanoma cells; endogenous in cells; host or cells: SK-MEL-2 human melanoma cells (ATCC)
Description: as §1

Vemurafenib [reference compound]
BRAF-V600E enzymatic activity (phosphorylated MEK) after cellular treatment (BRAF-V600E): significantly inhibited BRAF-V600E enzymatic activity
wild type BRAF enzymatic activity, direct in vitro incubation (wild type BRAF): no effect

Source: patent US20180369195A1, “COMBINATION THERAPY FOR TREATMENT OF MELANOMA” (The Regents of the University of California, priority 2015, published 2018)
